Source: paper PMC5325712 (Journal of medicinal chemistry, 2017)

The chains behind the UniProt entries cited, without tags or fusion partners. Where a name states a change or a piece, a line headed by the entry shows the natural chain unless it says otherwise.
UniProt P35462, whole entry: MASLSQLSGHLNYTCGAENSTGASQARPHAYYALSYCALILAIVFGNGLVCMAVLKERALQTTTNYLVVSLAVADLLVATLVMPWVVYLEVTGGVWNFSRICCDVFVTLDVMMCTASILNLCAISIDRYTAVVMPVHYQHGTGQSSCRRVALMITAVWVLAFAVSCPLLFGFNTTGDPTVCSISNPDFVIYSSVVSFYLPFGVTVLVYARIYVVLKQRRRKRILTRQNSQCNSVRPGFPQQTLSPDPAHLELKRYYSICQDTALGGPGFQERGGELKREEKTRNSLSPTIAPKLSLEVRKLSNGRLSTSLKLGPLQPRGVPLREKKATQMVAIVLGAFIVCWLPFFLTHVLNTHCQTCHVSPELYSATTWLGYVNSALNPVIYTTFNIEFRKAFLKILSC

Biological target: D3R (Homo sapiens, UniProt P35462)
Assay: β-arrestin recruitment assay
Conditions: curve shift, Gaddum/Schild model, Schild slope of unity, equation 5

- pA2 at D3R: 7.40 ± 0.10
Structure (SMILES): CCN1CCCC1CNC(=O)c1cc(S(N)(=O)=O)ccc1OC (stereo not shown) [sulpiride]
